Measured affinities in a library of Ab-14 light chain variants

Data: MIT Lincoln Laboratory AlphaSeq set, Li et al. 2023, doi:10.1038/s41467-023-39022-2, as distributed in FLAb.

The target is the same throughout: PDVDLGDISGINAS, from the HR2 region of SARS-CoV-2 spike.

Parent scFv Ab-14: VH joined to VL by three GGGGS repeats. Changes lie in the light chain CDRs alone.
VH: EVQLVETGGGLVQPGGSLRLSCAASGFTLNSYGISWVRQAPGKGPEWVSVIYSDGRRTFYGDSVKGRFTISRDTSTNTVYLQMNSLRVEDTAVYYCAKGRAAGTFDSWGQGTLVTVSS
VL: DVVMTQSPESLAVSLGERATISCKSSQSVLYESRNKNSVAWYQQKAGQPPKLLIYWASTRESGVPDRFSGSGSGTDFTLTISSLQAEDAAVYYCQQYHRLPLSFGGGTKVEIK

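This is the validation round: designs drawn from the data on random variants, tested in the same kind of assay. Several design methods are mixed in this list. AlphaSeq pools MATa yeast showing the antibodies with MATalpha yeast showing the peptide. The frequency of each diploid, read from paired DNA barcodes, reflects how well the two displayed proteins bind. Each replicate has its own calibration line, from reference interactions of the BCL2 family. Each pool was mated in six replicate cultures.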

Positions count from residue 1 of the parent VL; K24V puts V in place of K. This list holds designs with at most six substitutions. Values are apparent Kd, the geometric mean of the replicates that gave a signal; lower means stronger binding. A pair that was not seen in any replicate is written "no signal"; this usually means weak binding, but a binder can also be missed. In the paper, a design with two or fewer of six values counts as a poor binder.

* K24V+S25L+W56N+E61L: 1.0 nM (6 of 6 replicates; controls 1 of 18)
* S25L+S26P+V29A+L30E+E32M+W56S: 870 pM (6 of 6 replicates; controls 1 of 18)
* Q27F+V29Y+Y31G+S33K+W56E: 760 pM (6 of 6 replicates; controls 2 of 18)
* S25L+S26Q+Q27F+W56E: 1.6 nM (6 of 6 replicates; controls 0 of 18)
* L30A+S33G+R99H: 8.4 nM (6 of 6 replicates; controls 0 of 18)
* Q27M+N35D: 300 nM (2 of 6 replicates; controls 2 of 18)
* Y31F+N37D+W56F: 28 nM (1 of 6 replicates; controls 2 of 18)
* S28K+Y31G+H98N: 210 nM (6 of 6 replicates; controls 2 of 18)
* S28K+R34H+K36M+S58N: 210 nM (6 of 6 replicates; controls 1 of 18)
* S25V+V29E+L30W+N35W+W56N+T59Q: 5.0 nM (6 of 6 replicates; controls 0 of 18)
* Q27A+V29Q+L30E+S33D+W56H+S62Q: 680 pM (6 of 6 replicates; controls 0 of 18)
* S25F+K36Q+W56N: 1.7 nM (6 of 6 replicates; controls 3 of 18)
* S25F+Y31M+N35T+K36S+S38R+W56N: 1.6 nM (6 of 6 replicates; controls 1 of 18)
* S25L+S26K+W56E: 560 pM (6 of 6 replicates; controls 0 of 18)
* K24A+W56G+S58N: 39 nM (6 of 6 replicates; controls 0 of 18)
* S25L+S26R+Q27M+V29T+W56K: 1.9 nM (6 of 6 replicates; controls 0 of 18)
* S25L+S26M+V29T+K36A+S38N+W56Y: 3.9 nM (6 of 6 replicates; controls 0 of 18)
* S25V+V29T+R34G+N35T+W56N+T59S: 6.9 nM (6 of 6 replicates; controls 0 of 18)
* S26L+Q27M+W56E+S62D+R99Q: 11 nM (6 of 6 replicates; controls 1 of 18)
* S25M+L30C+E32N+W56G: 2.3 nM (6 of 6 replicates; controls 2 of 18)
* N35Q+W56E: 2.2 nM (6 of 6 replicates; controls 1 of 18)
* S25L+V29F+W56N+E61L: 650 pM (6 of 6 replicates; controls 0 of 18)
* R34D+W56N: 2.2 nM (6 of 6 replicates; controls 2 of 18)
* S25L+S26E+V29D+W56N+E61L: 720 pM (6 of 6 replicates; controls 0 of 18)
* R34D+W56H+Y97Q+L102N: 71 nM (1 of 6 replicates; controls 0 of 18)
* S26Q+V29Q+W56N+E61L: 1.4 nM (6 of 6 replicates; controls 0 of 18)
* S25C+Y31M+L102C: no signal (0 of 6 replicates; controls 0 of 18)
* S28G+W56G+S62Q+Q96A: 2.8 nM (6 of 6 replicates; controls 1 of 18)
* L30V+Y31F+R34M+K36S+W56D+R99I: 210 nM (5 of 6 replicates; controls 0 of 18)
* S25L+Q27G+V29H+W56E: 480 pM (6 of 6 replicates; controls 0 of 18)
* Q27F+V29Y+R34G+W56E: 2.9 nM (6 of 6 replicates; controls 0 of 18)
* K24H+Q27P+K36G+W56N+E61L: 3.9 nM (6 of 6 replicates; controls 0 of 18)
* K24H+Q27P+W56N+S58G+L102R: no signal (0 of 6 replicates; controls 2 of 18)
* S25L+V29G+W56N+Q96D: 2.9 nM (6 of 6 replicates; controls 3 of 18)
* S25V+Q27M+W56D: 650 pM (6 of 6 replicates; controls 1 of 18)
* S25L+S26P+S38N+W56E: 510 pM (6 of 6 replicates; controls 2 of 18)
* S25L+Q27G+V29M+S38A+W56N: 320 pM (6 of 6 replicates; controls 0 of 18)
* W56S+S62F+H98M: 840 pM (6 of 6 replicates; controls 0 of 18)
* N37E+H98A+L102E: no signal (0 of 6 replicates; controls 0 of 18)
* S25L+S38N+W56H+S62D: 360 pM (6 of 6 replicates; controls 2 of 18)
* S25F+L30E+N35T+W56N: 1.1 nM (6 of 6 replicates; controls 0 of 18)
* S25M+S38H+A57E+S103E: 110 nM (1 of 6 replicates; controls 1 of 18)
* S25L+K36P+W56G: 970 pM (6 of 6 replicates; controls 1 of 18)
* W56E+E61M: 6.8 nM (6 of 6 replicates; controls 0 of 18)
* S25L+S26Q+L30G+W56N+S62E: 940 pM (6 of 6 replicates; controls 0 of 18)
* S25Y+S26E+Q27F+V29D+Y31N+W56E: 2.8 nM (6 of 6 replicates; controls 2 of 18)
* W56S+E61Y: 9.4 nM (6 of 6 replicates; controls 0 of 18)
* S25V+V29C+S38N+W56E: 1.0 nM (6 of 6 replicates; controls 2 of 18)
* S26D+Q27I+V29Y+Y31E+W56E: 2.2 nM (6 of 6 replicates; controls 0 of 18)
* S25L+V29E+W56E+S62Q: 1.5 nM (6 of 6 replicates; controls 2 of 18)
* V29D+L30T+K36Q+W56M: 13 nM (6 of 6 replicates; controls 0 of 18)

Excerpt, the first 7 entries:

* K24V+S25L+W56N+E61L: 1.0 nM (6 of 6 replicates; controls 1 of 18)
* S25L+S26P+V29A+L30E+E32M+W56S: 870 pM (6 of 6 replicates; controls 1 of 18)
* Q27F+V29Y+Y31G+S33K+W56E: 760 pM (6 of 6 replicates; controls 2 of 18)
* S25L+S26Q+Q27F+W56E: 1.6 nM (6 of 6 replicates; controls 0 of 18)
* L30A+S33G+R99H: 8.4 nM (6 of 6 replicates; controls 0 of 18)
* Q27M+N35D: 300 nM (2 of 6 replicates; controls 2 of 18)
* Y31F+N37D+W56F: 28 nM (1 of 6 replicates; controls 2 of 18)

As a blank, each scFv also met three strains without target: over all light chain designs, 4% of these pairings were detected, typically at 430 nM and seldom below 38 nM. Also given: how often the same scFv was detected with the empty control strains. Values of this round are not directly comparable with the first-round values of the same sequences.